Results published in PubChem BioAssay AID720648 (The Scripps Research Institute Molecular Screening Center, 2013).
The entries are a selection whose mix differs from that of the whole data set. Activity calls are given as the source filed them.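 The calls were made as follows: active = inhibition above the mean of compounds lying between control limits plus 3 SD, set per campaign (cut at about 8.5% in these data); inactive = the rest.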

By UniProt entry, the sequences of proteins in these tests, tags left out. Residues count along the entry.
UniProt P78536, 215-824 limits assumed: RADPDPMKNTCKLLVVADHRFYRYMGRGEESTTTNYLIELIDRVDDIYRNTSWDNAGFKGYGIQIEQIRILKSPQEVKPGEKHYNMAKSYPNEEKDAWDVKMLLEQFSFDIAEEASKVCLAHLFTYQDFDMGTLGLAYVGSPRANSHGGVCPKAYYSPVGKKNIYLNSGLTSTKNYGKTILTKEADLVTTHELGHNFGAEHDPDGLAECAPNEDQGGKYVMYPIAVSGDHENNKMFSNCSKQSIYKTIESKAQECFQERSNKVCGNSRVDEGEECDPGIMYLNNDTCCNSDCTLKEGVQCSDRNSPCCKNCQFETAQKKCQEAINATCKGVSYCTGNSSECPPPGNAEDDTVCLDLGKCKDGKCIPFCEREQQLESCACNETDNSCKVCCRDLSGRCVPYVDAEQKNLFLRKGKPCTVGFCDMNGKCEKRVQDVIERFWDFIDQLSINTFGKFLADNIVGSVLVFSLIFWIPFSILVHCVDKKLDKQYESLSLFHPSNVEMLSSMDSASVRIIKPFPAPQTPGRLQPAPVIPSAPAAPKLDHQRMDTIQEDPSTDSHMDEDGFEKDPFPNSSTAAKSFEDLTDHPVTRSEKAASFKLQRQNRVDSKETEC

Each compound was assayed against Disintegrin and metalloproteinase domain-containing protein 17 (Homo sapiens) (UniProt P78536) (assay: ADAM17 inhibitors, primary screen, biochemical, QFRET (AID 720648;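 also: 0% = DMSO-only wells as the low control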)). Conditions: recombinant ADAM17, EDANS/DABCYL FRET peptide cleavage; at 6.95 µM; hits give high values.
In the case of `COc1cc(OC)cc(C(=O)NCC2(N3CCCCC3)CCCCC2)c1`, the inhibition was inactive: 2.03%.
In the case of `O=c1[nH]c2ccccc2n1C1CCN(C(c2ccnc3ccccc23)c2nnnn2C2CCCCC2)CC1` (stereo not given), the inhibition was inactive: 4.52%.
In the case of `CCC(c1nnnn1C1CCCCC1)N1CCC(n2c(=O)[nH]c3ccccc32)CC1` (stereo not given), the inhibition was inactive: 4.62%.
`COc1cccc(C(c2nnnn2C2CCCCC2)N2CCC(n3c(=O)[nH]c4ccccc43)CC2)c1OC` (stereo not given) was tested, and the inhibition was inactive: 7.32%.
For `CC(=O)N(c1ccccc1)C1CCNCC1`, the inhibition was inactive: -4.62%.
For `Cc1ccc(NC2(C#N)CCN(Cc3ccccc3)CC2)cc1`, the inhibition was inactive: 1.21%.
In the case of `Fc1ccccc1NC1CCN(Cc2ccccc2)CC1`, the inhibition was inactive: -0.78%.
In the case of `Cc1ccc(C(=O)NCC2(N3CCCCC3)CCCCC2)o1`, the inhibition was inactive: -5.35%.
For `COc1ccc(C(c2nnnn2C2CCCCC2)N2CCC(n3c(=O)[nH]c4ccccc43)CC2)cc1` (stereo not given), the inhibition was inactive: -1.17%.
`CCN1CCC(Nc2cccc(F)c2)CC1` was tested, and the inhibition was inactive: 0.37%.
For `CC(C)(C)n1nnnc1C(c1ccnc2ccccc12)N1CCC(n2c(=O)[nH]c3ccccc32)CC1` (stereo not given), the inhibition was inactive: -2.88%.
With `Cc1ccccc1NC1(C#N)CCN(Cc2ccccc2)CC1` the inhibition was inactive: -1.6%.
In the case of `CN(C)c1ccc(C(=O)NCC2(N3CCCCC3)CCCCC2)cc1`, the inhibition was inactive: -3.56%.
`Cn1c(=O)[nH]cc(N(CCCl)CCCl)c1=O` was tested, and the inhibition was inactive: -2.94%.
In the case of `O=C(NCC1(N2CCCCC2)CCCCC1)c1ccco1`, the inhibition was inactive: -1.38%.
In the case of `CN1CCC(Nc2ccc(F)c(Cl)c2)CC1`, the inhibition was inactive: -3.05%.
For `CCOc1ncccc1C(=O)NCC1(N2CCOCC2)CCCCC1`, the inhibition was inactive: -2.2%.
In the case of `O=c1[nH]c2ccccc2n1C1CCN(C(c2cc3ccccc3o2)c2nnnn2C2CCCC2)CC1` (stereo not given), the inhibition was inactive: 3.58%.
`CCCOc1ccc(C(=O)NCC2(N(C)C)CCCCC2)cc1` was tested, and the inhibition was inactive: -8.23%.
`O=C(O)C1(Nc2ccccc2)CCN(Cc2ccccc2)CC1` was tested, and the inhibition was inactive: -3.41%.
With `NN(c1ccccc1)C1CCN(CCc2ccccc2)CC1` the inhibition was inactive: -1.12%.
For `CC(C)(C)OC(=O)N1CCC(Nc2ccccc2)CC1`, the inhibition was inactive: -2.31%.
For `CCC(CO)(C(=O)OC1CN2CCC1CC2)c1ccccc1` (stereo not given), the inhibition was inactive: 1.87%.
For `COc1cc(OC)cc(C(=O)NCC2(N3CCOCC3)CCCCC2)c1`, the inhibition was inactive: -1.07%.
For `COc1cccc(C(c2nnnn2C2CCCC2)N2CCC(n3c(=O)[nH]c4ccccc43)CC2)c1OC` (stereo not given), the inhibition was inactive: 7.88%.
For `COc1cccc(C(=O)N(c2cc(C)cc(C)c2)C2CCN(C(=O)OC(C)(C)C)CC2)c1`, the inhibition was inactive: -0.88%.
With `CN1CCC(Nc2ccc(Cl)cc2)CC1` the inhibition was inactive: -3.46%.
With `O=C(NCC1(N2CCOCC2)CCCCC1)c1cc(Br)ccc1Cl` the inhibition was inactive: -0.27%.
For `COc1cc(C(=O)NCC2(N3CCOCC3)CCCCC2)cc(OC)c1C`, the inhibition was inactive: 1.91%.
For `CCCCn1nnnc1C(c1ccccc1)N1CCC(n2c(=O)[nH]c3ccccc32)CC1` (stereo not given), the inhibition was inactive: -0.04%.
With `O=c1[nH]c2ccccc2n1C1CCN(C(c2ccnc3ccccc23)c2nnnn2C2CCCC2)CC1` (stereo not given) the inhibition was inactive: 5.2%.
`COc1ccc(C(=O)NCC2(N3CCOCC3)CCCCC2)cc1OC` was tested, and the inhibition was inactive: -0.91%.
With `NC(=O)C1(Nc2ccccc2)CCN(Cc2ccccc2)CC1` the inhibition was inactive: 1.16%.
For `O=c1[nH]c2ccccc2n1C1CCN(C(c2cccs2)c2nnnn2C2CCCCC2)CC1` (stereo not given), the inhibition was inactive: 6.25%.
`N/C(=N\O)c1c(N)no[n+]1[O-]` was tested, and the inhibition was inactive: -1.83%.
For `CCOC(=O)N1CCC(Nc2ccc(C)cc2)CC1`, the inhibition was inactive: -1.7%.
`COc1cccc(C(c2nnnn2C(C)(C)C)N2CCC(n3c(=O)[nH]c4ccccc43)CC2)c1OC` (stereo not given) was tested, and the inhibition was inactive: 1.7%.
`CCCCn1nnnc1C(c1cccc(OC)c1OC)N1CCC(n2c(=O)[nH]c3ccccc32)CC1` (stereo not given) was tested, and the inhibition was inactive: 3.45%.
In the case of `O=c1[nH]c2ccccc2n1C1CCN(C(c2cccs2)c2nnnn2C2CCCC2)CC1` (stereo not given), the inhibition was inactive: 3.87%.
For `O=C(OC1CN2CCC1CC2)C1c2ccccc2C=Cc2ccccc21` (stereo not given), the inhibition was inactive: -3.66%.
With `CC(C)(C)OC(=O)N1CCC(N(C(=O)c2ccccc2)c2ccc(Cl)cc2)CC1` the inhibition was inactive: 2.19%.
In the case of `N#Cc1ccc(C(=O)NCC2(N3CCCCC3)CCCCC2)cc1`, the inhibition was inactive: -2.6%.
For `O=c1[nH]c2ccccc2n1C1CCN(C(c2ccccc2)c2nnnn2C2CCCC2)CC1` (stereo not given), the inhibition was inactive: 0.53%.
In the case of `CCCN1CCC(Nc2cc(OC)cc(OC)c2)CC1`, the inhibition was inactive: -7.35%.
In the case of `Cc1cc(N(CCCl)CCCl)ccc1C=O`, the inhibition was inactive: -4.87%.
`C/C(N)=N\P(=O)(Oc1ccccc1)Oc1ccccc1` was tested, and the inhibition was inactive: -0.71%.
For `c1ccc(CN2CCC(Nc3ccccc3)CC2)cc1`, the inhibition was inactive: 0.32%.
`CN(C)C1(CNC(=O)c2cccc(C#N)c2)CCCCC1` was tested, and the inhibition was inactive: -1.3%.
With `CC(C)(C)n1nnnc1C(c1cccc2ccccc12)N1CCC(n2c(=O)[nH]c3ccccc32)CC1` (stereo not given) the inhibition was active: 9.72%.
In the case of `O=C(NCC1(N2CCCCC2)CCCCC1)c1ccc(OC(F)F)cc1`, the inhibition was inactive: -1.89%.
For `CC(C)(C)n1nnnc1C(c1ccccc1OC(F)(F)F)N1CCC(n2c(=O)[nH]c3ccccc32)CC1` (stereo not given), the inhibition was inactive: -1.2%.
In the case of `O=C(NCC1(N2CCCCC2)CCCCC1)c1cccc([N+](=O)[O-])c1`, the inhibition was inactive: -0.21%.
In the case of `CSc1ccc(C(=O)NCC2(N3CCOCC3)CCCCC2)cc1`, the inhibition was inactive: 1.1%.
For `O=c1[nH]c2ccccc2n1C1CCN(C(c2ccccc2OC(F)(F)F)c2nnnn2C2CCCC2)CC1` (stereo not given), the inhibition was inactive: -3.32%.
With `N#CC1(Nc2ccccc2)CCN(CCc2ccccc2)CC1` the inhibition was inactive: -0.75%.
In the case of `CCN1CCC(Nc2ccc(Cl)cc2)CC1`, the inhibition was inactive: -9.81%.
`O=C(NCC1(N2CCCCC2)CCCCC1)c1cccc(C(F)(F)F)c1` was tested, and the inhibition was inactive: -0.3%.
`CN1CCN(CCOC(=O)C(O)(c2ccccc2)c2ccccc2)CC1` was tested, and the inhibition was inactive: 1.75%.
`COc1ccc(NC2CCN(C(=O)OC(C)(C)C)CC2)cc1` was tested, and the inhibition was inactive: 1.08%.
In the case of `CC(C)c1ccc(C(=O)NCC2(N3CCOCC3)CCCCC2)cc1`, the inhibition was inactive: -1.1%.
